Experiments:
[1] = Selectivity for human CCR1 receptor over CCR5 receptor
[2] = Selectivity for human CCR1 receptor over CCR2 receptor
[3] = Selectivity for human CCR1 receptor over CCR3 receptor

Measured: Selectivity ratio

O=S(=O)(NCCCN1CCC(O)(c2ccc(Cl)cc2)CC1)c1ccccc1-c1ccccc1
> 100: [1] | [2] | [3]

Source: ChEMBL document CHEMBL1143879, “Identification of novel series of human CCR1 antagonists” (Bioorg Med Chem Lett, 2008)
